Laboratory results reported in patent EP2987482A1, “Soluble and dispersible pharamaceutical deferasirox formulation” (Santa Farma Ilaç Sanayi A.S., priority 2014, dated 2016).
Where two headings read alike, the source gives them in different places.

Columns and labels:
[1] = Solubility of deferasirox in water from composition with sodium carbonate, dissolved with magnetic stirrer; assay type: physicochemical; conditions: magnetic stirrer for 3 minutes
Experimental: Table 1 below, without being limited to the compounds and their amounts mentioned, illustrates the pH values and solubility data of a pharmaceutical composition comprising 500 mg of deferasirox combined with various amounts of sodium carbonate in a suitable carrier when the said composition was dissolved using a magnetic stirrer for 3 minutes.

[2] = cited from earlier work
[3] = at the physiological pH of the intestine; SmPC of Exjade® dispersible tablets; cited from earlier work

Substance: 4-[3,5-bis(2-hydroxyphenyl)-[1,2,4]triazol-1-yl]benzoic acid [deferasirox]
- Solubility of deferasirox in water ([1]; composition with 500 mg deferasirox and 40 mg sodium carbonate): 270 µg/mL
- Solubility of deferasirox in water ([1]; composition with 500 mg deferasirox and 60 mg sodium carbonate): 460 µg/mL
- Solubility of deferasirox in water ([1]; composition with 500 mg deferasirox and 100 mg sodium carbonate): 760 µg/mL
- Solubility of deferasirox in water ([1]; composition with 500 mg deferasirox and 120 mg sodium carbonate): 900 µg/mL
- Solubility of deferasirox in water ([1]; composition with 500 mg deferasirox and 140 mg sodium carbonate): 1030 µg/mL
- Solubility of deferasirox in water ([1]; composition with 500 mg deferasirox and 160 mg sodium carbonate): 1090 µg/mL
- solubility of deferasirox alone ([2]; deferasirox alone, without sodium carbonate): 40 µg/mL
- solubility ([2]; in water at 37°C): 38 µg/mL
- solubility [3]: about 40 mg/L
